This note sets out measurements from PubChem BioAssay (NCI).

The entries are a selection whose mix differs from that of the whole data set.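 The endpoint reported here, percent growth, reads 100 for growth as untreated, 0 for no net growth and -100 for all cells dead.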 The source made the active and inactive calls. How the source made its calls: active means growth percent below 10; inactive means the rest.

Holding throughout (test): NCI-60 one-dose screen, 48 h (100 = growth as untreated, 0 = no growth, -100 = all killed)
Common to all, as to settings: 10 µM unless noted

The test system of assay [1] is NCI-H23 lung.
Assay [2] has as its system NCI-H226 lung.
Assay [3] concerns NCI-H322M lung.
Assay [4] has as its system HOP-62 NSCLC.
For assay [5], the system named is NCI-H460 lung.
For assay [6], the system named is A549/ATCC NSCLC.
For assay [7], the system named is 786-0 renal.
Assay [8] has as its system COLO 205 colon.
Assay [9] relates to HOP-92 NSCLC.
In assay [10] the test system is NCI-H522 lung.

For the molecule `Nc1ccc(N(CCCl)CCCl)cc1`, the growth in assay [1] was inactive: 59.8%; in assay [2] it was inactive: 70.8%; in assay [3], inactive: 106%; in assay [4] it was inactive: 65.4%; in assay [5], inactive: 17.7%; in assay [6], inactive: 54.4%. Moreover, the figures for the growth in [7] and in [8] were inactive: 48% and inactive: 74.7%, respectively.
Take `O=C(OC1CN2CCC1CC2)c1ccccc1` (centres undefined): the growth in assay [1] is inactive: 105%; in assay [2] it was inactive: 101%; in [5] it was inactive: 105%; in assay [9] it was inactive: 96.5%; in assay [6], inactive: 106%; in [7] it was inactive: 114%. The growth in assay [8] was inactive: 109%.
Consider `COP(=O)(OC)N1CC1c1ccccc1` (centres undefined), for which the growth in assay [1] is inactive: 93.8%; in assay [2], inactive: 101%; in [4], inactive: 108%; in [9], inactive: 106%; in [10], inactive: 108%; in [6], inactive: 100%. Also, the values for the growth in assay [7] and in assay [8] were inactive: 91.9% and inactive: 116%, respectively.
In the case of `O=P(O)(O)F`, the growth was inactive: 102% in [2]; inactive: 103% in [3]; inactive: 105% in assay [4]; inactive: 109% in assay [5]; inactive: 98.6% in [9]; inactive: 102% in assay [10]. The growth in assay [6] is inactive: 97.3%; in [7] it was inactive: 107%; in [8], inactive: 132%.
On to `O=[N+]([O-])c1cc(Oc2ccc([N+](=O)[O-])cc2C(F)(F)F)cc([N+](=O)[O-])c1`, for which the growth was inactive: 95% in assay [1]; inactive: 106% in assay [2]; inactive: 98.7% in [3]; inactive: 97.1% in assay [5]; inactive: 139% in assay [9]; inactive: 83.2% in assay [10]. Further, the growth is inactive: 97.1% in assay [6], inactive: 107% in assay [7] and inactive: 115% in assay [8].
For `Cc1ccc(Sc2ccc([N+](=O)[O-])cc2[N+](=O)[O-])c([N+](=O)[O-])c1`, the growth in assay [2] was active: -20.3%; in assay [3], inactive: 88.2%; in assay [4] it was inactive: 28.4%; in [5], inactive: 74.4%; in assay [9], active: -7.35%; in [10], active: -31.2%. Moreover, the growth in assay [6] is inactive: 15.7%; in assay [7] it was active: 8.51%; in assay [8], active: -5.45%.
In the case of `Nc1ccc(CCCCOc2ccccc2)cc1`, the growth in assay [1] is inactive: 70.9%; in assay [3], inactive: 102%; in assay [4] it was inactive: 97%; in [5], inactive: 91.4%; in assay [9], inactive: 62%; in [10], inactive: 66.2%. For the same molecule, the figures for the growth in assay [6], in assay [7] and in assay [8] were inactive: 96.7%, inactive: 81.3% and inactive: 106%, respectively.
As for `CCN(CCCl)C1c2ccccc2-c2ccccc21`, the growth is inactive: 95.9% in assay [1]; inactive: 95.7% in assay [2]; inactive: 94.7% in assay [4]; inactive: 100% in [5]; inactive: 91.3% in assay [9]; inactive: 89.9% in assay [10]. Further, the growth is inactive: 91.3% in assay [6], inactive: 104% in assay [7] and inactive: 102% in assay [8].
Turning to `O=C(O)Cc1ccc(N(CCCl)CCCl)cc1`, the growth in [7] was inactive: 107%.
In the case of `O=[N+]([O-])c1ccc(CCCCCCc2ccc([N+](=O)[O-])cc2[N+](=O)[O-])c([N+](=O)[O-])c1`, the growth in assay [1] was inactive: 90.6%; in assay [2], inactive: 83.3%; in assay [3], inactive: 96.1%; in [4], inactive: 116%; in assay [5] it was inactive: 84.2%; in assay [10], inactive: 109%. Further, the growth in [6] is inactive: 86.7%; in [8] it was inactive: 104%.
Take `O=[As]c1ccc(S(=O)(=O)Nc2ccccc2)cc1` (centres undefined): the growth in assay [1] was inactive: 70.4%; in [2] it was inactive: 92.8%; in [3], inactive: 106%; in assay [4] it was inactive: 110%; in assay [5], inactive: 104%; in assay [10] it was active: -64%. For the same molecule, the values for the growth in assay [6] and in assay [8] were inactive: 104% and active: -31.2%, respectively.
In the case of `CN(CCCl)CC1OC(O)C(O)C(O)C1O` (centres undefined), the growth in assay [1] was inactive: 105%; in assay [2], inactive: 94.6%; in [4] it was inactive: 98.6%; in [5], inactive: 107%; in assay [9], inactive: 98%; in assay [6] it was inactive: 94.4%. The values for the growth in [7] and in assay [8] were inactive: 101% and inactive: 110%, respectively.
In the case of `OC(CNCCCl)C(O)C(O)C(O)CNCCCl` (centres undefined), the growth in [1] is inactive: 115%; in [3], inactive: 105%; in assay [4], inactive: 105%; in assay [5], inactive: 88.6%; in assay [9], inactive: 99.2%; in [10], inactive: 101%. Moreover, the growth was inactive: 94.2% in assay [6], inactive: 106% in [7] and inactive: 107% in assay [8].
Turning to `Cc1ccc(S(=O)(=O)N(CCCN)CCCc2c(C)nc(N)[nH]c2=O)cc1`, the growth in assay [1] is inactive: 98.9%; in assay [3], inactive: 92.7%; in assay [4], inactive: 99.1%; in [5] it was inactive: 104%; in assay [9], inactive: 87.4%; in assay [10], inactive: 95.7%. Also, the figures for the growth in assay [6], in assay [7] and in [8] were inactive: 103%, inactive: 99.4% and inactive: 110%, respectively.
Regarding `O=P1(N(CCCl)CCCl)NCCC(C(F)(F)F)O1` (centres undefined), the growth in assay [1] was inactive: 99.7%; in assay [3], inactive: 111%; in assay [4], inactive: 99.8%; in [5] it was inactive: 94.1%; in [9], inactive: 93.6%; in assay [10], inactive: 99.2%. Further, the growth in [6] is inactive: 98.1%; in assay [7], inactive: 101%; in assay [8], inactive: 103%.
With `NNc1ccc([N+](=O)[O-])cc1[N+](=O)[O-]`, the growth in assay [1] is inactive: 108%; in [2] it was inactive: 106%; in [3], inactive: 100%; in assay [4], inactive: 100%; in [5] it was inactive: 107%; in assay [6], inactive: 95.4%. The growth in assay [7] was inactive: 97.3%; in assay [8] it was inactive: 100%.
On to `O=P(O)(NCCCO)N(CCCl)CCCl`, for which the growth in [1] was inactive: 90.5%; in assay [2], inactive: 96%; in assay [3], inactive: 85.8%; in [4], inactive: 106%; in assay [5], inactive: 73.4%; in assay [10], inactive: 110%. For the same molecule, the growth is inactive: 91.7% in assay [7] and inactive: 94% in assay [8].
On to `ClCC1CS1` (centres undefined), for which the growth is inactive: 107% in assay [1]; inactive: 102% in assay [2]; inactive: 87.4% in [3]; inactive: 103% in [4]; inactive: 105% in assay [5]; inactive: 107% in assay [6]. The growth was inactive: 98.7% in [7] and inactive: 111% in assay [8].
In the case of `CN(CCCl)CCC(=O)c1ccccc1`, the growth in assay [1] was inactive: 98.9%; in assay [2], inactive: 99.3%; in assay [4], inactive: 101%; in assay [5] it was inactive: 98.2%; in assay [9] it was inactive: 111%; in assay [10], inactive: 87.5%. Besides, the growth in assay [6] is inactive: 101%; in assay [7] it was inactive: 98.2%; in assay [8] it was inactive: 113%.
Consider `COC(=O)C1(C)COP(=O)(Nc2ccccc2)OC1` (centres undefined), for which the growth in assay [1] is inactive: 99.6%; in assay [2], inactive: 113%; in assay [3] it was inactive: 97.6%; in assay [5], inactive: 105%; in [10], inactive: 88.6%; in assay [6], inactive: 107%. Further, the growth in [7] was inactive: 97.3%; in [8], inactive: 113%.
Turning to `O=C(O)C(=O)c1ccc(N(CCCl)CCCl)cc1`, the growth was inactive: 113% in assay [1]; inactive: 104% in assay [3]; inactive: 108% in assay [4]; inactive: 112% in assay [5]; inactive: 101% in assay [9]; inactive: 88.8% in assay [10]. For the same molecule, the growth in assay [6] is inactive: 104%; in assay [7], inactive: 104%; in [8], inactive: 116%.
For the molecule `NC(=O)Nc1ccc([As](=O)(O)O)cc1`, the growth in [1] was inactive: 103%; in assay [2], inactive: 113%; in assay [5], inactive: 110%; in assay [9], inactive: 102%; in [6] it was inactive: 98.8%; in [7] it was inactive: 103%. For the same molecule, the growth in assay [8] was inactive: 110%.
On to `COC(=O)N(C)[N+](=O)[O-]`, for which the growth in [1] was inactive: 110%; in [2] it was inactive: 99%; in assay [3], inactive: 94.6%; in assay [4], inactive: 108%; in assay [5], inactive: 112%; in assay [6] it was inactive: 99.4%. Moreover, the growth in [7] was inactive: 100%; in [8], inactive: 128%.
With `CCCCCCCNP(=S)(Cl)Cl`, the growth in assay [1] was inactive: 101%; in assay [2] it was inactive: 96.8%; in [3], inactive: 101%; in [5] it was inactive: 108%; in assay [9] it was inactive: 99.9%; in assay [10] it was inactive: 27.7%. Moreover, the growth in assay [6] is inactive: 103%; in assay [7], inactive: 101%; in [8], inactive: 107%.
